For one compound, IC50 results are on record in ChEMBL document CHEMBL1138472, “Halogen bonding--a novel interaction for rational drug design?” (J Med Chem, 2009).

This assay concerns the target Cyclin-dependent kinase 2 (Homo sapiens, UniProt P24941).

With `c1ccc(Nc2nc(OCC3CCCCC3)c3nc[nH]c3n2)cc1`, the IC50 was 1 µM.

Usually IC50 stands for the midpoint of a concentration-inhibition curve. Higher therefore signals weaker potency.
